Molecules are shown by their SMILES.

Sequences of proteins named here, by UniProt entry; tags and fusion partners are left off.
UniProt P30542, whole entry: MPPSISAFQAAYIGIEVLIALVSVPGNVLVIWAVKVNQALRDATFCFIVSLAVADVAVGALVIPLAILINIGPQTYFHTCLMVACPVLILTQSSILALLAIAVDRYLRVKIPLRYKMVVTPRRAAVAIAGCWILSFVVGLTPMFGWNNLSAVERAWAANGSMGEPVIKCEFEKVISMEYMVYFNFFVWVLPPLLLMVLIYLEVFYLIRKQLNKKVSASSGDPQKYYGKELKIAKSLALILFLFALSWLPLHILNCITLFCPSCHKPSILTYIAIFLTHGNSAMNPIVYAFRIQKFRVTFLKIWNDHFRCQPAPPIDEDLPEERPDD

The assay has as its target T1, human A1AR (Homo sapiens, UniProt P30542).
T1 construct: was generated by amplifying the coding region of A1AR; expressed in transfected cells
The assay can be described thus: A1AR NanoBit split-luciferase β-arrestin 2 recruitment assay. Type of assay: cell-based. The following applies: for β-arrestin 2 recruitment (AUC): mean ± SEM, n = 3. On the technique in general: Arrestin recruitment assays detect the binding of arrestin to an activated receptor.

With `CCNC(=O)[C@H]1O[C@@H](n2cnc3c(N)ncnc32)[C@H](O)[C@@H]1O` [NECA, 5′-N-ethylcarboxamidoadenosine], the “initial rate of β-arrestin 2 recruitment” value (10 µM agonist, rise-and-fall equation fit (Hoare plug-in)) is recorded as 12.858 ± 0.277 fold change/min. The “β-arrestin 2 recruitment (AUC)” value is, setting by setting: (agonist 0.1 µM) 9748 ± 407 AUC; (agonist 1 µM) 19,461 ± 1809 AUC. Also, the “change in β-arrestin 2 recruitment compared to control (0.1% DMSO)” value (agonists at 0.1 and 1 µM, one-way ANOVA, Dunnett's) was “significant increase”.
